Test results: patent US20030105010A1, “Crystals and structures of ArnB aminotransferases” (priority 2001, published 2003)

The chains behind the UniProt entries cited, without tags or fusion partners. Where a name states a change or a piece, a line headed by the entry shows the natural chain unless it says otherwise.
UniProt Q8ZNF3: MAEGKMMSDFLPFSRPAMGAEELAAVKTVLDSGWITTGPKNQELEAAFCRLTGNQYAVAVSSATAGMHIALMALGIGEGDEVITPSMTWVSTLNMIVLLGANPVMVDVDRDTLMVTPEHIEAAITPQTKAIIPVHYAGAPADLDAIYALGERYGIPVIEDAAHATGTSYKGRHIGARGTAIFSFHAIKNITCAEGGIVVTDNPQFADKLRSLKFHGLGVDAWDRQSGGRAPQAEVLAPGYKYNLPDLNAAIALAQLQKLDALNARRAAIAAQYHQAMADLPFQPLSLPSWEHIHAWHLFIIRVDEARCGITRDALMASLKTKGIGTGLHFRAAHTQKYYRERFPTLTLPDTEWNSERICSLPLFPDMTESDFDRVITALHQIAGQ

Target: T1, Salmonella typhimurium ArnB (Salmonella typhimurium, UniProt Q8ZNF3)
T1 construct: GlySer-His6 (GlySerHisHisHisHisHisHis) (C); made in house; host or cells: E. coli BL21 (DE3), vector pSB3 (modified pET26b)
Assay: ArnB aminotransfer half-reaction assay (absorbance of PMP/PLP cofactor forms at 340 nm / 430 nm)
Type: biochemical
Conditions: addition of α-ketoglutarate; 340 nm peak reduced, 430 nm increased
Description: Aminotransfer half-reactions were measured at an enzyme concentration of 23 μM and substrates were added to a final concentration of 250 μM, unless otherwise indicated. Reaction progress was followed by moniotoring the absorbance maxima of the PMP or PLP cofactor forms at 340 nm or 430 nm, respectively. Resulting time courses were fit to eq. 1, describing a single-exponential decay,
Yobs=((Y0−Y∞)e^−kt)+Y∞ (Eq. 1),
where Yobs=observed signal, Y0=signal at time zero, Y∞=signal at infinite time, k is the apparent first-order rate constant, and t is time. Nonlinear least-squares fits were performed with Kaleidagraph v3.51 (Synergy Software, Reading, Pa.).

For α-ketoglutarate, which “conversion of E•PMP ArnB to the internal aldimine (E-PLP) form” value is on record?
The value was “consistent with conversion to the internal aldimine or E-PLP form”.
